Reference: ChEMBL document CHEMBL3352364 (Bioorg Med Chem Lett, 2014)

Target: T1, 5-hydroxytryptamine receptor 2C (Rattus norvegicus, UniProt P08909)
T1 sequence (P08909 whole entry): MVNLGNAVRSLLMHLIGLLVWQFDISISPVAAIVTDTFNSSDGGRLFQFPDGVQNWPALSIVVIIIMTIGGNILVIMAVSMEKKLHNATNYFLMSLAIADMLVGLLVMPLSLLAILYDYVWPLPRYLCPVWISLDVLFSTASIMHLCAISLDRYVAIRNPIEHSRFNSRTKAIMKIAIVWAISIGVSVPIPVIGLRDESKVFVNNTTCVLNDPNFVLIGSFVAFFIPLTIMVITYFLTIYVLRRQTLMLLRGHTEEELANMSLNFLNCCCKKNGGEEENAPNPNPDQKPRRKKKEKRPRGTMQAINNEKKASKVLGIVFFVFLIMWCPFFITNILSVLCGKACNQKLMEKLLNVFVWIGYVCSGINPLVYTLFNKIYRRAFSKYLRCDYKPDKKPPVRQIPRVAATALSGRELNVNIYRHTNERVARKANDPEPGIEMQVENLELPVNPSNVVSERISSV

## O=C(CCCN1C2CCC1CC(O)(c1ccc(Cl)cc1)C2)c1ccc(F)cc1 (stereo unspecified)
  Ki: 872 nM
